# Biological target: Acetylcholinesterase (Eel) (Electrophorus electricus, UniProt O42275)
# Chains of the proteins cited; added tags and fusions are not shown. Residues count along the entry.
# UniProt O42275, 24-633: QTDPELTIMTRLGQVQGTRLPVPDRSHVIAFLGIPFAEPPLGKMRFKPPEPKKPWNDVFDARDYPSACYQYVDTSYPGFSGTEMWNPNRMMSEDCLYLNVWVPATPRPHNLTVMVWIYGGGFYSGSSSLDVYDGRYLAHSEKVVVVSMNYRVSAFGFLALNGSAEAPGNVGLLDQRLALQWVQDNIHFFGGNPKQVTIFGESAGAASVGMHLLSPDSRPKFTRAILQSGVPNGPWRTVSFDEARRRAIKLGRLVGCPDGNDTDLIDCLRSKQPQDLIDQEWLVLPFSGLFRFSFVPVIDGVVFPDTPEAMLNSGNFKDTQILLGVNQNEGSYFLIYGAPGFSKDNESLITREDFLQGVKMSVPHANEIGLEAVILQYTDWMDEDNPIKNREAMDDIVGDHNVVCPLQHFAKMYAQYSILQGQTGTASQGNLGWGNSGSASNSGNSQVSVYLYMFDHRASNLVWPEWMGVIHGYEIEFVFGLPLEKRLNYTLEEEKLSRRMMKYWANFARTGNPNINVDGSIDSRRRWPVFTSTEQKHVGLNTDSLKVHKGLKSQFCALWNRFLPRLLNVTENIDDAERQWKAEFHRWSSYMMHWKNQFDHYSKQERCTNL
# Experiment: biochemical
structure (smiles),measurement,value
"CNC(=O)Oc1ccc2c(c1)[C@]1(C)CCN(C)[C@@H]1N2C (relative stereo) [(+/-)physo, reference compound]",IC50,92 nM

# — US4900748A (priority 1988, dated 1990)
